Laboratory results reported in patent US11304967B2, “Compounds and compositions for improving power output and oxygen efficiency” (dated 2022).

Columns and labels:
interval athletes = test: Anaerobic capacity: total work over 30 seconds in interval athletes (Example 2)
physically trained men = test: 10 minute cycling time-trial after pre-exhaustion, 4 weeks supplementation (Example 1); conditions: for VO2/Power ratio / Relative power / Average VO2 / Estimated VO2 max / Absolute power: Test 2 (post treatment), 500 mg daily 4 weeks, n = 19; for VO2/Power ratio: Test 1 pre treatment 0.171; for Relative power: Test 1 pre treatment 4.03; for Average VO2: Test 1 pre treatment 51.09; for Estimated VO2 max: Test 1 pre treatment 57.88; for Absolute power: Test 1 pre treatment 298.04
elderly subjects = test: Timed Up & Go (TUG) mobility assessment (Example 4); conditions: four weeks, treatment group vs placebo group
resistance athletes = test: Peak force output in barbell squat, open-label pre-posttest study (Example 3)
[1] = tested on: horse skeletal muscle cells (myoblasts); test: High Resolution Oxygraphy of mitochondrial respiration (Example 5); conditions: 24 h pretreatment, 40 μg/mL

hesperitin-7-rutinoside
Δ anaerobic capacity, treatment group compared to control group (interval athletes; after 4 weeks of treatment): 3.2 fold
Δ anaerobic capacity (difference after 4 weeks of treatment) (interval athletes; interval athletes, work over 30 seconds, control group 354.6 W): 1146.8 W
Increase of absolute power (physically trained men; 4 weeks of supplementation, trained athletes, within treatment group): 5%
VO2/Power ratio (physically trained men): significantly decreased
VO2/Power ratio (physically trained men; listed as Hesperidin): 0.166
Relative power (physically trained men): significantly increased
Relative power (physically trained men; listed as Hesperidin): 4.23 W/kg
Average VO2 (physically trained men): did not differ significantly
Average VO2 (physically trained men; listed as Hesperidin): 52.01 mL/min/kg
Estimated VO2 max (physically trained men): did not differ significantly
Estimated VO2 max (physically trained men; listed as Hesperidin): 57.87 mL/min/kg
Absolute power (physically trained men): significantly increased
Absolute power (physically trained men; listed as Hesperidin): 312.98 W
Time to perform TUG exercise (elderly subjects): significantly faster
Peak force output (resistance athletes; after 4 weeks of supplementation compared to baseline, all subjects): significantly higher
Increase of peak force output compared to baseline (resistance athletes; example 3, as restated): 36%
Proton flow in the mitochondria ([1]; oligomycin-induced): increased
Mitochondrial respiration capacity (routine, Flow, ETS max) ([1]; versus vehicle): clear and significant effect
